This data set can be described thus: sorafenib plasma pharmacokinetics (LC-MS/MS, noncompartmental). Conditions: steady state, with topotecan. It counts as in vivo, human.

Where the note is “Cycle 2, day 1, 150 mg/m^2 (n = 6)”, `CNC(=O)c1cc(Oc2ccc(NC(=O)Nc3ccc(Cl)c(C(F)(F)F)c3)cc2)ccn1` [Sorafenib] showed a C max of 6400 ± 5400 ng/mL. Further, the T max (Cycle 2, day 1, 200 mg/m^2 (n = 1)) was determined as 1 h.

The record behind these values is publication PMC4735769 (Cancer Medicine, 2015).
